US20230203095A1, “BIOLOGICAL PEPTIDE FOR TREATING LUNG DISEASES AND APPLICATION THEREOF” (SHANGHAI INSTITUTE OF PHARMACEUTICAL INDUSTRY CO., LTD., priority 2019, published 2023)

Assay: Plasma drug concentrations and pharmacokinetics after a single intravenous or subcutaneous injection of SIPI-G9 in SD rats
Conditions: for half-life: sc
Protocol: Routes: single back subcutaneous injection and single tail vein injection;
Orbital blood was collected at different time points before and after administration. […] High concentration samples were diluted with blank plasma.
Column: SHIM-PACK GISS C18 (2.1 × 100 mm, 1.9 µm); injection volume: 20 µL; mobile phase: phase A: 0.2% acetic acid in water; phase B: methanol, gradient elution (see Table 16 for details);
The ion source is electrospray ionization source (ESI); the drying gas (N2) temperature is 550° C.; the electrospray voltage is 5500 V; the detection method is positive ion detection; the scanning method is the selective reaction monitoring (MRM) method, and the scanning time is 0.15 s.
50 µL plasma was taken and 5 µL internal standard solution (DX07 (His-Leu-Glu-Thr-Glu-Leu-His) 100 ng/mL) was added. After that, 150 µL of methanol was added to precipitate proteins, then centrifuged at 13,000 rpm for 5 min, and 160 µL supernatant was taken and dried with 40° C. N2, then reconstituted with 75 µL of 0.1% formic acid aqueous solution.
Pharmacokinetic parameters were calculated using the non-compartmental model of DAS 2.0 software. Both Cmax and Tmax are measured values; AUC, T½, CL and Vz are calculated by DAS 2.0.

T1/2 (SIPI-G9 5 mg/kg s.c., SD rats, individual rats, 5 mg/kg): 26.8 min and 25.7 min
Fa (absolute bioavailability) (rat, in vivo): 82.7%
bioavailability (rat, in vivo): 86.2%
half-life (rat, in vivo, 5 mg/kg, T1/2, Mean, SIPI-G9 5 mg/kg s.c., SD rats, n=3): 27.1 min
half-life (rat, in vivo, 5 mg/kg, T1/2, SIPI-G9 5 mg/kg s.c., SD rats, individual rats): 28.8 min
SMILES: CC(=O)N[C@H]1C(OC[C@H](NC(=O)[C@@H](NC(=O)[C@H](Cc2ccc(O)cc2)NC(=O)[C@@H](NC(=O)[C@H](CCC(N)=O)NC(=O)CN)[C@@H](C)OC2O[C@H](CO)[C@@H](O)[C@H](O)[C@H]2NC(C)=O)[C@@H](C)O)C(=O)NCC(=O)O)O[C@H](CO)[C@@H](O)[C@@H]1O (some centres unmarked) [SIPI-G9, GQT(Glc)YTS(Glc)G]

Several values for one entry are separate records, joined by “and”; a condition that tells them apart may be missing. Identical values can stand only once.
